# Measured affinities in a library of Ab-14 light chain variants

From the AlphaSeq antibody data of Engelhart et al. 2022 (doi:10.1038/s41597-022-01779-4), copy in the FLAb collection.

The target is the same throughout: PDVDLGDISGINAS, from the HR2 region of SARS-CoV-2 spike.

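The parent was found by panning a naive human phage display library on the peptide. AAYL50 was designed without a model: most single CDR substitutions and a random sample of double and triple ones. The assay is AlphaSeq: two haploid yeast populations carry antibody and antigen on their surface. Binding brings cells together so that they mate, and sequencing counts the barcode pairs among the diploids. Scores were corrected for input abundance and mapped to Kd with protein pairs of known affinity run in the same pool. Each pool was mated in three replicate cultures.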

The variants keep the heavy chain, the linker and the frameworks of Ab-14 (scFv order VH, the linker GGGGSGGGGSGGGGS, VL).
VH: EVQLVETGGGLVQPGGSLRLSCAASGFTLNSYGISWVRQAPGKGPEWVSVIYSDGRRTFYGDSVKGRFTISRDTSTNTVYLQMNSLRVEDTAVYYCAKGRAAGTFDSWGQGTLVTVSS
VL: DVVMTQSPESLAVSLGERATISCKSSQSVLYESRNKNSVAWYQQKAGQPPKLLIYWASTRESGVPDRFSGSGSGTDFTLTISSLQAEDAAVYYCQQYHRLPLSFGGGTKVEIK

Changes read parent residue, position, new residue, counted from the first residue of the VL shown. Values are log10 of the apparent Kd in nM; lower means stronger binding. Replicates are averaged; those with no signal do not enter the mean. Where no diploid with the target was found in that replicate, the entry reads "nd": below detection, most likely a poor binder, though not proof of it. Three control strains display no target. For library AAYL50, 18% of the pairings with them gave a signal, with a median of 4.19 and one signal in twenty below 2.99, so weak values seen in few replicates may be background. Also given: how often the same scFv was detected with the empty control strains. For reference, the parent read 0.65 as the reference entry and 1.68 as a member of this library.

V29K/N37M/P101H: 2.10, 2.72, 1.96 (mean 2.26; controls 0 of 9).
N37A/Q96D/R99E: nd, 3.13, 2.68 (mean 2.91; controls 1 of 9).
E32T/N35P/R99L: nd, nd, nd (controls 3 of 9).
V29A/L30N/S62G: 1.31, 1.32, 2.64 (mean 1.76; controls 0 of 9).
S33E/A57D/R99W: nd, nd, nd (controls 1 of 9).
S25C/Q96T/H98A: 1.27, 1.41, 1.25 (mean 1.31; controls 4 of 9).
N35D/V39R/L102F: 6.31, nd, nd (controls 2 of 9).
W56E/S62T/L100W: -0.19, 0.22, 0.00 (mean 0.01; controls 1 of 9).
L30D/E32G/R34E: 0.73, 0.87, 0.54 (mean 0.72; controls 0 of 9).
Q27P/N37S/L100K: 4.11, 2.74, 4.85 (mean 3.90; controls 1 of 9).
N37L/S58K/L100Q: 3.30, nd, 3.70 (mean 3.50; controls 2 of 9).
R34S/N37M/P101T: 1.24, 1.22, 1.48 (mean 1.31; controls 1 of 9).
Q27D/S58V/T59L: 1.67, 1.70, 1.53 (mean 1.64; controls 2 of 9).
Y31A/R34L/N37P: 1.96, 2.64, 3.05 (mean 2.55; controls 6 of 9).
K24I/E32Q/A40C: nd, nd, nd (controls 1 of 9).
S26Q/H98W/L100C: nd, nd, nd (controls 0 of 9).
S28N/Y97A/L100E: 0.39, 0.72, 0.59 (mean 0.56; controls 1 of 9).
L30C/N35F/V39K: nd, nd, 4.00 (controls 2 of 9).
N35F/Y97G/P101G: nd, 3.92, nd (controls 3 of 9).
S26I/V29N/W56R: -0.06, 0.23, -0.02 (mean 0.05; controls 4 of 9).
V29G/E32Q/R60F: 4.67, nd, nd (controls 1 of 9).
S26H/Y31I/S38F: nd, 3.10, nd (controls 3 of 9).
L100N/P101Q/S103C: 0.56, 0.71, 0.68 (mean 0.65; controls 0 of 9).
Q27M/Y31L/N37G: 0.19, 0.55, 0.35 (mean 0.36; controls 1 of 9).
S28I/V29W/Q96F: 4.15, 3.14, 3.75 (mean 3.68; controls 4 of 9).
L30E/N35E/L102V: 1.53, 1.71, 1.62 (mean 1.62; controls 0 of 9).
E32H/E61C/S103A: 1.47, 1.82, 1.68 (mean 1.66; controls 8 of 9).
N35Q/L100R/P101W: nd, nd, nd (controls 0 of 9).
A40T/R60F/Q95K: nd, nd, 5.89 (controls 1 of 9).
S26P/H98W/L102E: 0.56, 1.04, 0.95 (mean 0.85; controls 2 of 9).
K24L/L30I/T59S: nd, 4.82, nd (controls 1 of 9).
W56N/S62A/L102H: -0.16, 0.49, 0.01 (mean 0.11; controls 3 of 9).

The last 3 entries again:

changes,"replicates, log10 nM","mean, log10 nM",signal with controls
S26P/H98W/L102E,"0.56, 1.04, 0.95",0.85,2/9
K24L/L30I/T59S,"nd, 4.82, nd",4.82,1/9
W56N/S62A/L102H,"-0.16, 0.49, 0.01",0.11,3/9